Patent US5602102A, “Dipeptidyl peptidase-I inhibitors and uses thereof” (Board of Regents, The Univ. of TX System, priority 1992, dated 1997)

The chains behind the UniProt entries cited, without tags or fusion partners. Residues count along the entry.
UniProt P53634, 395-463 limits assumed: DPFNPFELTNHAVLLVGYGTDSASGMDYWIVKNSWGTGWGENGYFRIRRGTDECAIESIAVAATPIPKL
UniProt P53634, 25-134 limits assumed: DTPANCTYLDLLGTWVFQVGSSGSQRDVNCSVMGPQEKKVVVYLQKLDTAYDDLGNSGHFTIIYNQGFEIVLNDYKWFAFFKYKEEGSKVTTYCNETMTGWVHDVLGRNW
UniProt P53634, 231-394 limits assumed: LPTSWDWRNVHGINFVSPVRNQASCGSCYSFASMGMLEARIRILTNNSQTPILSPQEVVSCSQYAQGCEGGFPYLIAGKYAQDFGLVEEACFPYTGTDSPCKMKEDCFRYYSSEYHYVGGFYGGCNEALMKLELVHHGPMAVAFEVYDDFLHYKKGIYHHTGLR

Molecular target: human dipeptidyl peptidase-I (Homo sapiens, UniProt P53634)
Experiment: Effect of protease inhibitors on DPPI activity (purified enzyme)
Assay type: biochemical
Design: Human DPPI is now established to constitute a 200,000 Da glycoprotein with 24,000 Da subunits; from tissue; host or cells: human cadaveric spleen
Settings: inhibitor 1 mM, preincubated 15 min at 37° C.
Experimental: Note. Purified human dipeptidyl peptidaseI (0.4 μg) was preincubated
with each of the inhibitors at the stated concentration for 15 min at
37° C.. Each sample was diluted 3fold with assay buffer containing
substrate and incubated for an additional 20 min.

O=S(=O)(F)Cc1ccccc1 [PMSF, phenylmethylsulfonylfluoride]
Percentage control activity: 98%
